Laboratory results from ChEMBL document CHEMBL4196121, “Meridianin D Analogues Display Antibiofilm Activity against MRSA and Increase Colistin Efficacy in Gram-Negative Bacteria” (ACS Med Chem Lett, 2018).

Columns and labels:
Klebsiella pneumoniae [1] = assay: Antibacterial activity against Klebsiella pneumoniae isolate C3 after 16 hrs by broth microdilution assay; settings: in vivo
Acinetobacter baumannii [2] = assay: Antibacterial activity against Acinetobacter baumannii ATCC 19606 after 16 hrs by broth microdilution assay; format: organism-based, ATCC 19606 = CIP 70.34 = JCM 6841; settings: in vivo
Escherichia coli [3] = assay: Antibacterial activity against Escherichia coli ATCC 25922 after 16 hrs by broth microdilution assay; format: organism-based
Acinetobacter baumannii [4] = assay: Antibacterial activity against Acinetobacter baumannii ATCC 17978 expressing mcr1 gene after 16 hrs by broth microdilution assay; format: organism-based; settings: in vitro
Acinetobacter baumannii [5] = assay: Antibacterial activity against Acinetobacter baumannii isolate 3941 after 16 hrs by broth microdilution assay; format: organism-based
Acinetobacter baumannii [6] = assay: Antibacterial activity against Acinetobacter baumannii ATCC 17978 after 16 hrs by broth microdilution assay; format: organism-based
Escherichia coli [7] = assay: Antibacterial activity against Escherichia coli ATCC 25922 expressing mcr1 gene after 16 hrs by broth microdilution assay; format: organism-based; settings: in vitro
Klebsiella pneumoniae [8] = assay: Antibacterial activity against Klebsiella pneumoniae isolate B9 after 16 hrs by broth microdilution assay; settings: in vivo
Acinetobacter baumannii [9] = assay: Antibacterial activity against Acinetobacter baumannii isolate 4106 after 16 hrs by broth microdilution assay; format: organism-based
Acinetobacter baumannii [10] = assay: Antibacterial activity against Acinetobacter baumannii isolate 5075 after 16 hrs by broth microdilution assay; format: organism-based
Klebsiella pneumoniae [11] = assay: Antibacterial activity against Klebsiella pneumoniae ATCC 2146 expressing NDM1 gene after 16 hrs by broth microdilution assay; format: organism-based; settings: in vivo

SMILES | MIC (Klebsiella pneumoniae [1]) | MIC (Acinetobacter baumannii [2]) | MIC (Escherichia coli [3]) | MIC (Acinetobacter baumannii [4]) | MIC (Acinetobacter baumannii [5]) | MIC (Acinetobacter baumannii [6]) | MIC (Escherichia coli [7]) | MIC (Klebsiella pneumoniae [8]) | MIC (Acinetobacter baumannii [9]) | MIC (Acinetobacter baumannii [10]) | MIC (Klebsiella pneumoniae [11])
Cl.Nc1nccc(-c2c[nH]c3c(Br)cccc23)n1 | > 200 µM | > 200 µM | > 200 µM | > 200 µM | > 200 µM | > 200 µM | > 200 µM | > 200 µM | > 200 µM | > 200 µM | > 200 µM
Cl.Nc1nccc(-c2c[nH]c3cccc(Br)c23)n1 | > 200 µM | > 200 µM | > 200 µM | > 200 µM | > 200 µM | > 200 µM | > 200 µM | > 200 µM | > 200 µM | > 200 µM | > 200 µM
Cl.Nc1nccc(-c2c[nH]c3cc(Cl)ccc23)n1 | > 200 µM | > 200 µM | > 200 µM | > 200 µM | > 200 µM | > 200 µM | > 200 µM | > 200 µM | > 200 µM | > 200 µM | > 200 µM
Cl.Nc1nccc(-c2c[nH]c3ccccc23)n1 | > 200 µM | > 200 µM | > 200 µM | > 200 µM | > 200 µM | > 200 µM | > 200 µM | > 200 µM | > 200 µM | > 200 µM | > 200 µM
